Antibody variant affinities, Ab-14 light chain, assay 1

Antigen: PDVDLGDISGINAS, a 14-residue peptide of the SARS-CoV-2 spike HR2 region.

Parent scFv Ab-14: VH joined to VL by the linker GGGGSGGGGSGGGGS. Changes lie in the light chain CDRs alone.
VH: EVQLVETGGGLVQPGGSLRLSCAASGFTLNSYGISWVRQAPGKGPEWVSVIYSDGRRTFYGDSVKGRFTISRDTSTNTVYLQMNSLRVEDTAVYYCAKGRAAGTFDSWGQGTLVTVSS
VL: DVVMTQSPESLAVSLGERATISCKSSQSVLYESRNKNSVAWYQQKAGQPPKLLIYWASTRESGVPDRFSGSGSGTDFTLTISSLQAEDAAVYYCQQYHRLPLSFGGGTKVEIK

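The parent was found by panning a naive human phage display library on the peptide. In library AAYL50, one, two or three CDR residues were substituted; doubles and triples were drawn at random. AlphaSeq pools MATa yeast showing the antibodies with MATalpha yeast showing the peptide. Pairs that bind mate more often; barcode pairs of the diploids are counted by sequencing. A regression on co-assayed BCL2-family reference pairs converts the normalised counts of each replicate to an apparent Kd. Mating was done three times.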

Changes read parent residue, position, new residue, counted from the first residue of the VL shown.
Affinities are written as log10 Kd with Kd in nM; a lower number is a better binder.
A mean of the replicates is given; it leaves out those without a signal.
Where no diploid with the target was found in any replicate, the entry reads "nd": below detection, most likely a poor binder, though not proof of it.
Empty control strains, which show no peptide, gave a signal in 18% of pairings with library AAYL50; the median was 4.19 and 95% of these signals were weaker than 2.99. No background was subtracted.
For reference, the parent read 0.65 as the reference entry and 1.68 as a member of this library.

changes,"mean, log10 nM",detected
A57C+Q96Y,nd,0/3
Q27D+A40E+S62M,nd,0/3
L30H+S62G+L100M,4.35,1/3
S58I+T59L+Q95I,nd,0/3
L30R+H98S+L100P,1.18,3/3
S62W+R99S+P101M,3.18,2/3
W56K+A57Q+L100S,4.30,2/3
E32T+N35P+R99L,nd,0/3
A40R+A57V+P101W,nd,0/3
S25R+Q95D+S103G,nd,0/3
Q27N+S38A+Y97S,1.38,3/3
V29W+L30Q+W56R,0.75,3/3
Y31A+Q95D+L102I,nd,0/3
S25D+S26P+A40I,4.02,2/3
L30I+N35V+L102C,2.05,3/3
W56Y+A57N+R99L,3.83,2/3
K36F+N37F+Q96I,3.67,2/3
S33Q+R60V+R99A,2.84,3/3
Y31V+N35Y+A40I,nd,0/3
S25P+S58E+Q96I,nd,0/3
E32G+R34I+Y97L,5.58,1/3
S58R+E61D+R99G,4.48,1/3
K24F+S62L,1.77,3/3
S25C+S33A,1.17,3/3
S25L+S26Q+Y97P,1.19,3/3
S26N+A40C+S62V,4.56,1/3
S25F+V39P+E61M,3.21,1/3
Y31K+S38M+L102Y,nd,0/3
S33N+A40I+H98T,nd,0/3
S25F+S26K+K36I,0.36,3/3
S26P+K36W+P101Y,nd,0/3
N35K+N37Q+L102I,3.55,3/3
L30I+V39Q+Q96S,2.44,3/3
L30C+S33A+L102H,nd,0/3
L30P+R34M,0.72,3/3
Q27C+V29E+L30E,nd,0/3
Q27E+L30E+V39S,4.05,1/3
V39K+Q95E+R99G,3.51,2/3
S28D+T59P+R60L,4.68,1/3
Y31T+K36E+A57E,1.44,3/3
S25C+Y31F+K36P,0.23,3/3
L30E+Y31T+N35P,1.15,3/3
S28N+T59M+H98C,2.63,3/3
S25N+A40G+R60W,4.68,1/3
E32H+E61S+R99H,1.97,3/3
S28Y+S38K+Y97T,nd,0/3
R34E+S62F,0.51,3/3
S38H+E61A+L102D,4.56,1/3
S38R+H98W+P101A,nd,0/3
W56T+P101V+S103W,1.95,3/3
S26Q+Y31C+L102N,2.94,3/3
S58L+R60N,3.71,2/3
R34V+N35C+A57D,2.68,3/3
K24W+S58G+P101E,nd,0/3
S28A+N37H+T59C,3.97,2/3
S38R+Y97R+P101V,nd,0/3
W56P+Q95A,3.73,3/3
T59A+L100D,nd,0/3
S25M+Y31Q+V39I,0.03,3/3
N35H+Q96C+R99E,1.12,3/3
K24I+S38C+S62D,2.79,3/3
N35L+V39Y+Y97P,nd,0/3
V29R+E32D+Y97D,1.70,3/3
V29Q+W56V,3.12,3/3
S28I+L30C+E32P,2.53,3/3
Y31M+N37G+R99P,4.39,3/3
E61I+H98Q,0.93,3/3
S62H+Q96F+L100C,nd,0/3
N35T+W56I+Q95C,nd,0/3
Q27M+Y31D+R34S,-0.06,3/3
K36R+A57S+H98Q,1.30,3/3
A40H+T59D+R99E,nd,0/3
S25N+Y31W+A40L,nd,0/3
N35Y+A57I+Y97K,nd,0/3
K24F+S28N,1.34,3/3
S38T+A57Q+R60K,nd,0/3
V29G+Y31I+S62T,0.53,3/3
Q27M+S33D+S38R,1.34,3/3
V39Q+R99S+L100I,3.19,1/3
S25F+T59K+E61N,0.65,3/3

The 7 strongest on average among those seen in every replicate, once more:

changes,"mean, log10 nM",detected
Q27M+Y31D+R34S,-0.06,3/3
S25M+Y31Q+V39I,0.03,3/3
S25C+Y31F+K36P,0.23,3/3
S25F+S26K+K36I,0.36,3/3
R34E+S62F,0.51,3/3
V29G+Y31I+S62T,0.53,3/3
S25F+T59K+E61N,0.65,3/3

From the AlphaSeq antibody data of Engelhart et al. 2022 (doi:10.1038/s41597-022-01779-4), copy in the FLAb collection.